{"sequences": {"note": "Protein sequences, listed by entry. Tags and fused reporters are not part of them.", "UniProt P08482, whole entry": "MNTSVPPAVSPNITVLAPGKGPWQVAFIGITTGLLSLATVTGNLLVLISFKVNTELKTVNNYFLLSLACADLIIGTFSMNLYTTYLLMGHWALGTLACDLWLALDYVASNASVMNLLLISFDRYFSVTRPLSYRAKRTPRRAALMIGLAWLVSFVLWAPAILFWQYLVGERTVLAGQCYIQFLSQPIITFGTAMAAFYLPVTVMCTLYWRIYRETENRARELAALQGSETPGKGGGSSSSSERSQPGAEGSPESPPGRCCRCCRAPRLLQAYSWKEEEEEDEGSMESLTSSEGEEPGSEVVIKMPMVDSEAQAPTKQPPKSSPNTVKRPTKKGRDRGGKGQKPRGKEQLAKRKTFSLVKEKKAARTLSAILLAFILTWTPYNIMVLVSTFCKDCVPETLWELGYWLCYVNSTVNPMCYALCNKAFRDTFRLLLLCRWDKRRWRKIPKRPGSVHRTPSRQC", "UniProt P12657, whole entry": "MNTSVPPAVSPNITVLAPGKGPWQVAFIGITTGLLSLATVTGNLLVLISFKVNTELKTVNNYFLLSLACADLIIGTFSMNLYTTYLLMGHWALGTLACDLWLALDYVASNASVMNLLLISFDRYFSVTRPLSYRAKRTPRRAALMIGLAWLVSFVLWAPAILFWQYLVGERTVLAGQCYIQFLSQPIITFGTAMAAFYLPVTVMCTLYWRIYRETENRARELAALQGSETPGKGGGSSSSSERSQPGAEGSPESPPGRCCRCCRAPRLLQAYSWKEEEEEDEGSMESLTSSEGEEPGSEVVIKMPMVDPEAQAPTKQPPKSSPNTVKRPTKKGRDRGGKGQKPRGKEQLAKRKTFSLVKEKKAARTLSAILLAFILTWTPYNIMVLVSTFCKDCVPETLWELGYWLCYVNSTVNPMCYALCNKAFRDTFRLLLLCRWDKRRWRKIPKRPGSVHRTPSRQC"}, "source": "paper PMC2774619", "about": "(Current Chemical Genomics, 2008)", "key": {"[1]": {"molecular_target": "murine M1 muscarinic acetylcholine receptor (Rattus norvegicus, UniProt P08482)", "assay": "HTRF IP-One assay in CHO-M1 cells (1536-well)", "settings": "read-out: IC50, IP-One Assay, LOPAC qHTS, 15 concentrations, antagonist mode with EC80 carbachol, tested form: dibromide"}, "[2]": {"molecular_target": "murine M1 muscarinic acetylcholine receptor (Mus musculus, UniProt P12657)", "assay": "Intracellular calcium assay in CHO-M1 cells (1536-well, FDSS-7000)", "settings": "read-out: IC50, Calcium Assay, LOPAC qHTS, 15 concentrations, antagonist mode with EC80 carbachol, tested form: dibromide"}}, "data": [{"smiles": "C=CC[N+](C)(C)c1ccc(CCC(=O)CCc2ccc([N+](C)(C)CC=C)cc2)cc1", "values": [{"measurement": "IC50", "setting": "[1]", "value": 12.6, "unit": "µM"}, {"measurement": "IC50", "setting": "[2]", "value": 6.31, "unit": "µM"}]}]}
